Reference: PMC7729925, “Selective hepatitis B and D virus entry inhibitors from the group of pentacyclic lupane-type betulin-derived triterpenoids” (Scientific Reports, 2020)

Target: T1, NTCP (Homo sapiens, UniProt Q14973)
T1 construct: expressed in transfected cells
T1 sequence (Q14973 1-349): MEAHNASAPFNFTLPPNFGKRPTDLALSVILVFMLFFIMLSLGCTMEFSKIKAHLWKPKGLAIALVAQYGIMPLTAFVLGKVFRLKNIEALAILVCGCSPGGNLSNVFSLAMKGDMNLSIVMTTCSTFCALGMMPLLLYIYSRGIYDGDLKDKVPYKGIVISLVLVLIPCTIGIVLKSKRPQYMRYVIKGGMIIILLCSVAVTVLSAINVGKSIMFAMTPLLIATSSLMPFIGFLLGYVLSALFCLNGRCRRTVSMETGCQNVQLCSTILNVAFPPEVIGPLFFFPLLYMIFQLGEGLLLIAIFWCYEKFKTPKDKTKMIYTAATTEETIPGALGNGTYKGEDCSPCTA
Assay: [3H]TC transport (bile acid uptake) inhibition in NTCP-HEK293 cells
Type: cell-based
Conditions: mean IC50, […] µM [3H]TC, standard pH 7.4

IC50: 34 µM
Compound: CO[C@H]1C[C@@H]2CC[C@@H](C)[C@@](O)(O2)C(=O)C(=O)N2CCCC[C@H]2C(=O)O[C@H]([C@H](C)C[C@@H]2CC[C@@H](O)[C@H](OC)C2)CC(=O)[C@H](C)/C=C(\C)[C@@H](O)[C@@H](OC)C(=O)[C@H](C)C[C@H](C)/C=C/C=C/C=C/1C [rapamycin, reference compound]
